From patent US20230248845A1, “COMBINATION OF AN ANTIBODY-DRUG CONJUGATE AND AN ANTIBODY-SAPONIN CONJUGATE” (SAPREME TECHNOLOGIES B.V., priority 2020, published 2023)

Assays:
[1] = in monkeys; cited from earlier work
SK-BR-3 cells (HER2^++) = test: Cell viability assay (MTS), targeted protein toxin mediated cell killing; format: cell-based, human
Experimental: After treatment the cells were incubated for 72 hr at 37° C. before the cell viability was determined by a MTS-assay, performed according to the manufacturer's instruction (CellTiter 96® AQueous One Solution Cell Proliferation Assay, Promega). Briefly, the MTS solution was diluted 20× in DMEM without phenol red (PAN-Biotech GmbH) supplemented with 10% FBS. The cells were washed once with 200 μL/PBS well, after which 100 μL diluted MTS solution was added/well. The plate was incubated for approximately 20-30 minutes at 37° C. Subsequently, the OD at 492 nm was measured on a Thermo Scientific Multiskan FC plate reader (Thermo Scientific). For quantification the background signal of ‘medium only’ wells was subtracted from all other wells, before the cell viability percentage of treated/untreated cells was calculated, by dividing the background corrected signal of treated wells over the background corrected signal of the untreated wells (×100).

Substance	enhancement of the tolerable dose of DM1 by conjugation to trastuzumab [1]	cell killing activity at high concentrations (SK-BR-3 cells (HER2^++); titrated on 50 pM trastuzumab-saporin, high concentrations, competition for HER2)	cell killing activity at higher concentrations (SK-BR-3 cells (HER2^++); titrated on fixed 50 pM pertuzumab-dianthin, higher concentrations)
ado-trastuzumab emtansine: conjugation of DM1 to trastuzumab	at least two-fold		
trastuzumab-(Cys-L-SO1861)^4: trastuzumab conjugated to SO1861-EMCH via cysteine residues, DAR4		cell killing activity is reduced	still effective
